According to paper PMC3500392 (ACS chemical biology, 2012):
Counter-ions that a name gives are not always drawn.

Tested on: GRK1
Details: tubulin substrate

Fc1ccc([C@@H]2CCNC[C@H]2COc2ccc3c(c2)OCO3)cc1 [paroxetine, paroxetine hydrochloride]
lower potency towards GRK1 compared to GRK2: 60 fold
